From PubChem BioAssay (EPA / NIEHS)
Values joined by “and” are separate entries in the source; they are usually repeats but may differ in a detail not shown here. Equal values may be shown once. Only a part is listed here, and it is no random draw. Inconclusive results are not listed. A structure can be active in one record and inactive in another. Active and inactive are the calls of the source. Rule for the calls, unless noted: active = hit-call score of the fitted dose curve at least 0.9, where 1 is the maximum; inconclusive = response in the unintended direction; inactive = score below 0.9.

Chains of the proteins cited; added tags and fusions are not shown. Lines headed by an entry give the natural chain unless they say otherwise; changes in a name come on top.
UniProt P33261, whole entry, looked up: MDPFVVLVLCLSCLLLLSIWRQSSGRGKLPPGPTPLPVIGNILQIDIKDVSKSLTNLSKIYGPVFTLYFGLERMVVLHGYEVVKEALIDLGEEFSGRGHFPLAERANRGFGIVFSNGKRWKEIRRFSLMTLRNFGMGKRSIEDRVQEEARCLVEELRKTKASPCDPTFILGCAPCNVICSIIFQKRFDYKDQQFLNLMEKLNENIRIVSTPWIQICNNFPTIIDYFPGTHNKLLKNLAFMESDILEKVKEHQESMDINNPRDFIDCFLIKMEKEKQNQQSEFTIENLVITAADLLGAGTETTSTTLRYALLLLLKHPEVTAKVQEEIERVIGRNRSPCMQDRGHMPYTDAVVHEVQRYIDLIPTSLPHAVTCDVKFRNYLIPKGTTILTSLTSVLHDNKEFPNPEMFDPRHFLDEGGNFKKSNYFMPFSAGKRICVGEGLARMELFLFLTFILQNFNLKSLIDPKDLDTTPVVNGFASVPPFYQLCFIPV
UniProt P08684, whole entry, looked up: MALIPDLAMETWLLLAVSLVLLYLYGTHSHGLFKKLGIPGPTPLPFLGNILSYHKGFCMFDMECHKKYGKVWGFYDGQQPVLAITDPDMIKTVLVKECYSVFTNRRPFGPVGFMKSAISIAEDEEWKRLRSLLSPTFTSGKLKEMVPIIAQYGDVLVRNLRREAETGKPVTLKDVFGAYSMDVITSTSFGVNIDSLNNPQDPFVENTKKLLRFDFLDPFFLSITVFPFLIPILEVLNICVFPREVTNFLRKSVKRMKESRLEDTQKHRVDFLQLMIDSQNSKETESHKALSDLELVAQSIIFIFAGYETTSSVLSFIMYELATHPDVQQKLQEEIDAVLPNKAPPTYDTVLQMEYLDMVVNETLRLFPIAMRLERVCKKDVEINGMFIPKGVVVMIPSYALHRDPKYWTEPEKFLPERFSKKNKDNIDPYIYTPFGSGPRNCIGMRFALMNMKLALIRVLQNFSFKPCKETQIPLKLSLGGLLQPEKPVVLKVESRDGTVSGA
UniProt P20813: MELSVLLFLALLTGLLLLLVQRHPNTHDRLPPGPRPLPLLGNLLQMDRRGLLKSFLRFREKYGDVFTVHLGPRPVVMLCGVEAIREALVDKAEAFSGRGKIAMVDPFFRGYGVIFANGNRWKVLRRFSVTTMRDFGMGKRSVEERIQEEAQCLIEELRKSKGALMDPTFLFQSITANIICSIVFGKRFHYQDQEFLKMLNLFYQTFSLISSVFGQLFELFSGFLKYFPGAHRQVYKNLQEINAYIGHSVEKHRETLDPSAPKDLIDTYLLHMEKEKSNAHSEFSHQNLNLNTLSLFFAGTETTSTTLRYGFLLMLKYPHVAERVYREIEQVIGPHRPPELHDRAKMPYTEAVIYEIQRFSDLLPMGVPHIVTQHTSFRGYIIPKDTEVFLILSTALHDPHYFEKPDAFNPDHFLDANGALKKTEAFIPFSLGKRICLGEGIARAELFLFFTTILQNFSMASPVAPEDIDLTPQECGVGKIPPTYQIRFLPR

Legend:
[1] = read-out: xenobiotic metabolism (CYP1A1), CYP1A1 (gene 1543); assay: CLD_CYP1A1_24hr: CellzDirect (CLD) Gene Expression Assay for xenobiotic metabolism (CYP1A1) at 24 hours (AID 2283673)
Experimental: (§1) CLD_24hr is a cell-based, multiplexed-readout assay that uses hepatocyte, a human liver primary cell, with measurements taken at 24 hours after chemical dosing in a 96-well plate.CLD_CYP1A1_24hr is one of 16 assay component(s) measured or calculated from the CLD_24hr assay. It is designed to make measurements of mRNA induction, a form of inducible reporter, as detected with chemiluminescence signals by Quantitative Nuclease Protection Assay (qNPA) technology.Data from the assay component CLD_CYP1A1_24hr was analyzed at the endpoint, CLD_CYP1A1_24hr, in the positive analysis fitting direction relative to DMSO as the negative control and baseline of activity. […] Furthermore, this assay endpoint can be referred to as a primary readout. […]
Human hepatocyte cultures were treated daily for two consecutive days with fresh dosing solutions containing appropriate concentrations of the 320 ToxCast chemicals (chemical identities were blinded to CellzDirect and other ToxCast collaborators), vehicle control (0.2% DMSO), and positive control inducers as summarized in Table 1. […] Cultures for each treatment group (i.e., media, vehicle [0.2% DMSO], positive control inducers [multiple concentrations], and the ToxCast chemicals [multiple concentrations]) were observed and cell morphology was assessed relative to vehicle control cultures at each harvest time point (0, 6, 24, or 48 h). […]

[2] = read-out: ABC Transporter (ABCB11), ABCB11 (gene 8647); assay: CLD_ABCB11_24hr: CellzDirect (CLD) Gene Expression Assay for ABC Transporter (ABCB11) at 48 hours (AID 2283674; active = hit-call score of the fitted dose curve at least 0.9, where 1 is the maximum; inactive = score below 0.9)
Outline: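 ABCB11 transcript was quantified by qNPA chemiluminescence in cultured human liver hepatocytes 24 hours after dosing. Fresh dosing solutions were applied on consecutive days, against a 0.2% DMSO vehicle. Cytotoxicity was noted by phase-contrast morphology.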

[3] = read-out: ABC Transporter (ABCB11), ABCB11 (gene 8647); assay: CLD_ABCB11_6hr: CellzDirect (CLD) Gene Expression Assay for ABC Transporter (ABCB11) at 6 hours (AID 2283675);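 note: hits raise ABCB11 mRNA level so AC50 marks induction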
Outline: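 Read-out was ABCB11 mRNA gain of signal by quantitative nuclease protection assay, relative to 0.2% DMSO vehicle, 6 h post-dose. Cells were primary human hepatocytes from two donors, treated across multiple concentrations; phase-contrast cytotoxicity noted yes/no.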

[4] = CLD_ACTIN_6hr: CellzDirect (CLD) Gene Expression Assay for Baseline Control (Actin) at 6 hours (AID 2283676);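 note: active means increased actin mRNA relative to DMSO vehicle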
Outline: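 Baseline actin transcript level measured by qNPA (S1 nuclease protection, chemiluminescence) in human hepatocyte cultures 6 h after chemical exposure; 0.2% DMSO vehicle as reference, cytotoxicity noted from morphology.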

[5] = read-out: Cytochrome P450 2C19 (Homo sapiens) (UniProt P33261); assay: CLD_CYP2C19_6hr: CellzDirect (CLD) Gene Expression Assay for xenobiotic metabolism (CYP1A2) at 6 hours (AID 2283678)
Outline: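 CYP2C19 transcript induction was quantified by quantitative nuclease protection assay with chemiluminescent read-out, 6 h after dosing. Cells were primary human hepatocytes from two donor preparations, given fresh dosing solutions daily in 0.2% DMSO vehicle. Activity was relative to DMSO.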

[6] = CCTE_Padilla_ZF_144hpf_TERATOSCORE: (Legacy) CCTE's 144 Hour Post-fertilization zebrafish Assay Teratoscore, Padilla Lab (AID 2283679; active = hit-call score of the fitted dose curve at least 0.9, where 1 is the maximum; inactive = score below 0.9;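 note: zebrafish embryos with chorions exposed by immersion from 6-8 hpf to 5 dpf with daily renewal; teratogenicity score from eye scoring of death hatching and malformations at 144 hpf; higher score means more developmental defects relative to DMSO baseline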)
Outline: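 Larvae scored by eye at 144 hpf for death, hatching and malformations after a day in clean Hanks'. Before that, daily-renewed exposure at 80 uM (0.4% DMSO, 26C) from roughly 6-8 hpf through 5 dpf, 4 embryos per chemical.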

[7] = read-out: Cytochrome P450 3A4 (Homo sapiens) (UniProt P08684); assay: CLD_CYP3A4_6hr: CellzDirect (CLD) Gene Expression Assay for xenobiotic metabolism (CYP3A4) at 6 hours (AID 2283680)
Experimental: CLD_6hr is a cell-based, multiplexed-readout assay that uses hepatocyte, a human liver primary cell, with measurements taken at 6 hours after chemical dosing in a 96-well plate.CLD_CYP3A4_6hr is one of 16 assay component(s) measured or calculated from the CLD_6hr assay. It is designed to make measurements of mRNA induction, a form of inducible reporter, as detected with chemiluminescence signals by Quantitative Nuclease Protection Assay (qNPA) technology.Data from the assay component CLD_CYP3A4_6hr was analyzed at the endpoint, CLD_CYP3A4_6hr, in the positive analysis fitting direction relative to DMSO as the negative control and baseline of activity. Using a type of inducible reporter, gain-of-signal activity can be used to understand changes in the reporter gene as they relate to the gene CYP3A4. Furthermore, this assay endpoint can be referred to as a primary readout. To generalize the intended target to other relatable targets, this assay endpoint is annotated to the cyp intended target family, where subfamily is xenobiotic metabolism.
Human hepatocyte cultures were treated daily for two consecutive days with fresh dosing solutions containing appropriate concentrations of the 320 ToxCast chemicals (chemical identities were blinded to CellzDirect and other ToxCast collaborators), vehicle control (0.2% DMSO), and positive control inducers as summarized in Table 1. […] These replicate data, coupled with internal replicates designed within the blinded ToxCast chemical library, provided additional data to evaluate interindividual differences between hepatocyte preparations and their potential impact on chemical profiles.Cell morphology and integrity were evaluated using phase-contrast microscopy as an indicator of hepatocyte cell health (Tyson & Green, 1987). Cultures for each treatment group (i.e., media, vehicle [0.2% DMSO], positive control inducers [multiple concentrations], and the ToxCast chemicals [multiple concentrations]) were observed and cell morphology was assessed relative to vehicle control cultures at each harvest time point (0, 6, 24, or 48 h). […]

[8] = CLD_ACTIN_24hr: CellzDirect (CLD) Gene Expression Assay for Baseline Control (Actin) at 24 hours (AID 2283670)
Experimental: as §1, with “plate.CLD_ACTIN_24hr” for “plate.CLD_CYP1A1_24hr”, “CLD_ACTIN_24hr” for “CLD_CYP1A1_24hr”, “CLD_ACTIN_24hr,” for “CLD_CYP1A1_24hr,”, “secondary readout, because this assay has produced multiple assay endpoints where this one serves a background control function.” for “primary readout.”
Human hepatocyte cultures were treated daily for two consecutive days with fresh dosing solutions containing appropriate concentrations of the 320 ToxCast chemicals (chemical identities were blinded to CellzDirect and other ToxCast collaborators), vehicle control (0.2% DMSO), and positive control inducers as summarized in Table 1. […] Images were evaluated at the conclusion of the study to assess changes in cell integrity and account for the effects of chemical exposure on uncharacteristic changes in concentration-dependent gene expression profiles. […]

[9] = read-out: glucuronosyltransferase (UGT1A1), UGT1A1 (gene 54658); assay: CLD_UGT1A1_6hr: CellzDirect (CLD) Gene Expression Assay for glucuronosyltransferase (UGT1A1) at 6 hours (AID 2283672)
Outline: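 UGT1A1 mRNA induction, read by quantitative nuclease protection assay, 6 h after dosing primary human hepatocytes (two donors, 0.2% DMSO vehicle). Gain of signal fitted relative to vehicle.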

[10] = read-out: Cytochrome P450 2B6 (Homo sapiens) (UniProt P20813); assay: CLD_CYP2B6_6hr: CellzDirect (CLD) Gene Expression Assay for xenobiotic metabolism (CYP2B6) at 6 hours (AID 2283677);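 note: actives raise CYP2B6 transcript above DMSO baseline so AC50 marks an inducer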
Outline: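 CYP2B6 transcript levels, read by chemiluminescent qNPA, were fitted for increase versus DMSO baseline; cultured human liver hepatocytes from two donor preparations were harvested 6 h after exposure to test chemicals at multiple concentrations.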

Measured: AC50

O=C1C2CC=CCC2C(=O)N1SC(Cl)(Cl)C(Cl)Cl (centres undefined)
active: [1] 20 µM | [6] 2060 nM
inactive: [2] | [3] | [4] | [5] | [7]

Cc1cc([N+](=O)[O-])cc([N+](=O)[O-])c1O
active: [6] 1510 nM

CC(C)OP(=S)(OC(C)C)SCCNS(=O)(=O)c1ccccc1
inactive: [8] | [9] | [3] | [4] | [10] | [5] | [7]
active: [1] 20 µM and 15.4 µM | [10] 3.98 µM and 608 nM | [6] 13100 nM | [7] 415 nM
